Assay results as given in paper PMC11792831, “Design and synthesis of doublecortin-like kinase 1 inhibitors and their bioactivity evaluation” (Journal of Enzyme Inhibition and Medicinal Chemistry, 2023).

Molecular target: T1, DCLK1 (Homo sapiens, UniProt O15075)
T1 construct: purchased Eurofins (Belgium), contract assay service
T1 sequence (O15075 1-740): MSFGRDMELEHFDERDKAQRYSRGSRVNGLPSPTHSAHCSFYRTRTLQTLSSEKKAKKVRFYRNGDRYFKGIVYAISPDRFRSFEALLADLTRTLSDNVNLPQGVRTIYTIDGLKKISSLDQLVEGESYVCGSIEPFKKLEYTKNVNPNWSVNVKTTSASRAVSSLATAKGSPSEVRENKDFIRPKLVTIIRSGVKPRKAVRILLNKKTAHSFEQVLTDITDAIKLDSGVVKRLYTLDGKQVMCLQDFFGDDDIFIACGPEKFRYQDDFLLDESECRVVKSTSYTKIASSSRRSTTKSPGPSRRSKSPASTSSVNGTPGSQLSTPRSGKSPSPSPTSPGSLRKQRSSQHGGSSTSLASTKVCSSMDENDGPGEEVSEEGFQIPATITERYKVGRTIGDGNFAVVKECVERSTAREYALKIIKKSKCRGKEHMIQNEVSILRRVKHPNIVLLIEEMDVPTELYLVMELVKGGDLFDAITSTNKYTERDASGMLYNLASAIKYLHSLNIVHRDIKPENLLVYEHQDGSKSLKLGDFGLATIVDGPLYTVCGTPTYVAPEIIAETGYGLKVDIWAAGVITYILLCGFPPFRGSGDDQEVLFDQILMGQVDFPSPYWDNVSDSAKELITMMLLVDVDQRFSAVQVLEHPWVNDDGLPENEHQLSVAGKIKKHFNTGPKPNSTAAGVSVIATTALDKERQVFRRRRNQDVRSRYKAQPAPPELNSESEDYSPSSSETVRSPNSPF
Experiment: In vitro DCLK1 kinase activity assay (Eurofins)
Type: biochemical
Description: Eurofins (Belgium) conducted in vitro DCLK1 and LRRK2 kinase activity assays. Compounds were sent as dry powders to Eurofins.

CCOc1cc(N2CCC(O)CC2)ccc1Nc1ncc2c(n1)N(C)c1ccccc1C(=O)N2C [XMD8-92, reference compound]
Selectivity (IC50 of DCLK1/IC50 of LRRK2) (ratio of IC50 values): 0.74
Selectivity (DCLK1 activity/LRRK2 activity) (ratio of remaining activities at 1 uM): 0.78
